Laboratory results as given in US10660959B2, “Formulations of a PI3K/mTOR-inhibitor for intravenous administration” (Pfizer Inc., priority 2014, dated 2020).

Assay: pH measurement of aqueous formulation samples
Format: physicochemical
Text: • (a) 36,100 g of water for injection was weighed into a vessel. 125.82 g of DL-Lactic acid (90.6% purity, parenteral grade) was slowly added and the mixture was stirred until the lactic acid dissolved. 195.3 g of 1-(4-{[4-(dimethylamino)piperidin-1-yl]carbonyl}phenyl)-3-[4-(4,6-dimorpholin-4-yl-1,3,5-triazin-2-yl)phenyl]urea was slowly added and the mixture was stirred until the material dissolved. 1900 g of mannitol powder (parenteral) was gradually added and the mixture was stirred until the material dissolved. Water for injection was added to make the solution up to a total weight of 38,760 g and the solution was stirred for a further 10 minutes. The pH was checked and found to be 3.4 with a solution temperature of 29.3° C. The solution was sterile filtered through an in-line 0.45 μm clarification filter and 0.22 μm filter assembly. This solution was then filled into 50 mL vials with a target fill volume of 20.8 mL for each vial. […]
The pH of the solution in the vial was measured as pH=3.52 at 23.2 degrees ° C.
At the end of the 5 day period the pH of each sample was measured and a visual observation of each sample was made using a light box as described in European Pharmacopoeia Method 2.9.20 (above), inspecting the samples against a black and a white background. […]
At the end of the specified rolling period the pH of each sample was measured and a visual observation of each sample was made using a light box as described in European Pharmacopoeia Method 2.9.20 (above), inspecting the samples against a black and a white background. […]
These samples were visually assessed made using a light box as described in European Pharmacopoeia Method 2.9.20 (above), inspecting the samples against a black and a white background. […] The pH was also measured. […]
These samples were visually assessed using a light box as described in European Pharmacopoeia Method 2.9.20 (above), inspecting the samples against a black and a white background. […] The pH was also measured. […]
The pH of the samples was assessed as follows: […]

CN(C)C1CCN(C(=O)c2ccc(NC(=O)Nc3ccc(-c4nc(N5CCOCC5)nc(N5CCOCC5)n4)cc3)cc2)CC1 [1-(4-{[4-(Dimethylamino)piperidin-1-yl]carbonyl}phenyl)-3-[4-(4,6-dimorpholin-4-yl-1,3,5-triazin-2-yl)phenyl]urea]
pH after dilution (Investigation 4, orthophosphoric acid samples diluted to 0.1 mg/mL, roller bed overnight): 3.19 | pH Check after 48 hours (Investigation 5, 3 mg/mL in 33.3 mM acetic acid): 3.88 | pH Check after 6 Days (Investigation 5, 4 mg/mL in 33.3 mM acetic acid): 4.07
